Data on two molecules can be found in patent publication US5952351A, “Alpha 1a adrenergic receptor antagonists” (dated 1999).

Amino acid sequences for entries named in this document (tags omitted).
UniProt P33533, whole entry: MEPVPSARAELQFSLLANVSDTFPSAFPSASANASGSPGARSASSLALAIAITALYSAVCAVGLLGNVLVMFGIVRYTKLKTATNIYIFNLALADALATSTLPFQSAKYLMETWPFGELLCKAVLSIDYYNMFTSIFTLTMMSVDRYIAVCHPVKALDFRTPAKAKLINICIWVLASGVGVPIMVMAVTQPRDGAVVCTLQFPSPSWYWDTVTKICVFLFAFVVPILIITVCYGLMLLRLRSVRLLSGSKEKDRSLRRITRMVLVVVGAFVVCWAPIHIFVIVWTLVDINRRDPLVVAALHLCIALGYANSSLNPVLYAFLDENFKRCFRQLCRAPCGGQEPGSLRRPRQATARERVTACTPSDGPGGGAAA
UniProt P41144, whole entry: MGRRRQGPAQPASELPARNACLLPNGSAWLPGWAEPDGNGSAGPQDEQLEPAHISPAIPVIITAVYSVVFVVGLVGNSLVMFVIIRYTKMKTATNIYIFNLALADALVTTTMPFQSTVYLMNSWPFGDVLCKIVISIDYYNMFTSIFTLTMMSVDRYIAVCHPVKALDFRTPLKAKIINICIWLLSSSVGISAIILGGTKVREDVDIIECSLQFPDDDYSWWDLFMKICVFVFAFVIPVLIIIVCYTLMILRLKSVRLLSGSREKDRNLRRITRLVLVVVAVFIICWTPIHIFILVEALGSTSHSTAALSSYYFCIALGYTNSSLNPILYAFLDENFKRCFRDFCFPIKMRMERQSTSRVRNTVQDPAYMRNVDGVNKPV
UniProt P33535, whole entry: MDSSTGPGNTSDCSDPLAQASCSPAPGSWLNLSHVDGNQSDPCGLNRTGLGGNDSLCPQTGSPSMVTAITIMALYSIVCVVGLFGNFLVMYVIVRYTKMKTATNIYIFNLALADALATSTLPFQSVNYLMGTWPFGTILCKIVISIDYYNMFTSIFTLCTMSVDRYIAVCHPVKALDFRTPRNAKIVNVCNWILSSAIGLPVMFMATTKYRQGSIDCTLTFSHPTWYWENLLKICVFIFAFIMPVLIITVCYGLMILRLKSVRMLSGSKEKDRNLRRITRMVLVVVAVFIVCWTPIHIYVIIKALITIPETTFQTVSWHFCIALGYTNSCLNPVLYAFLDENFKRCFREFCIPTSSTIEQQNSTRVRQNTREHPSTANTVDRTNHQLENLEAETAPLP

For test [1], the target named is delta opioid receptor (Rattus norvegicus, UniProt P33533). The experiment in a line: Radioligand binding assay for opioid receptor subtypes, 3H-DPDPE. As to conditions: read-out: IC50 3H-DPDPE (delta), rat brain, 3H-DPDPE 3 nM, 25° C. How it is done: (§1) Radioligand binding assays for opioid receptor subtypes
(§2) Opioid mu and delta receptor binding assays were performed with rat brain membranes using ^3 H-DAMGO ([D-Ala^2, Me-Phe^4, Gly-ol^5 ]enkephalin, 1 nM) and ^3 H-DPDPE ([D-Pen^2, D-Pen^5 ]enkephalin, 3 nM) as the selective radioligand, respectively (Slater and Cross, 1991, Methods in Neurosciences ed. P.M. Conn. Academic Press, vol. 5 pp.459-478). Kappa receptor binding assays were performed with guinea pig brain membranes using ^3 H-U69593 (5 alpha, 7 alpha, 8 beta)-(+)-N-Methyl-N-[7-(1-pyrrolinyl)-1-oxaspiro[4,5]dec-8-yl]benzene-acetamide, 5 nM) as the radioligand. Brain membrane preparation and radioligand binding assays were performed similarly to those for ^3 H-naloxone binding assay with the exception as noted below. Some protease inhibitors (bacitracin 20 μg/ml, soybean trypsin inhibitor 50 μg/ml and leupeptin 10 μg/ml) were added to the binding assay buffer for ^3 H-DAMGO and ^3 H-DPDPE binding assays. Binding assays were carried out at 25° C. for 1 hour (^3 H-DAMGO and ^3 H-U69593) and 3 hours (^3 H-DPDPE). Nonspecific binding was determined in the presence of 1 μM of naloxone. The selectivity of representative compounds of the present invention on opioid receptor subtypes are shown below in Table 7.

Test [2] addresses kappa opioid receptor (Cavia porcellus, UniProt P41144). Put plainly: Radioligand binding assay for opioid receptor subtypes, 3H-U69593. The following applies: read-out: IC50 3H-U69593 (kappa); guinea pig brain, 3H-U69593 5 nM, 25° C., 1 hour. How it is done:
as §1, §2

In test [3] the target is mu opioid receptor (Rattus norvegicus, UniProt P33535). The experiment in a line: Radioligand binding assay for opioid receptor subtypes, 3H-DAMGO. As to conditions: read-out: IC50 3H-DAMGO (mu); rat brain, 3H-DAMGO 1 nM, 25° C., 1 hour. How it is done: as §1, §2

The structures appear in SMILES notation.

Consider `CC(C)(CCCN1C(=O)c2ccccc2S1(=O)=O)N1CCC(n2c(=O)[nH]c3ccccc32)CC1`, for which the IC50 in test [1] is 3000 nM; in test [2] it was 490 nM; in test [3] it was 7.7 nM.

As to `CCn1c(=O)n(C2CCN(C(C)(C)CCCN3C(=O)c4ccccc4S3(=O)=O)CC2)c2ccccc21`, the IC50 in test [1] amounted to 4300 nM; in test [2] it was 1200 nM; in test [3] it was 1.9 nM.
